{"source": "paper PMC6973020", "about": "“Quinoline‐Conjugated Ruthenacarboranes: Toward Hybrid Drugs with a Dual Mode of Action” (Chemmedchem, 2019)", "test": "Stability in water‐containing DMSO‐d6 (NMR spectroscopy)", "format": "physicochemical", "procedure": "NMR spectroscopy. To determine the stability in biocompatible organic solvents, 3–5 (each ca. 3 mg) were dissolved in water‐containing DMSO‐d6 (0.6 mL) in air at room temperature, and periodically frozen (4–5 °C) and unfrozen. The solutions were analyzed with ^1H and ^11B{^1H} NMR spectroscopy over a period of one month.", "note": "Entries after “also recorded” stand apart in the source; their conditions may differ.", "data": [{"substance": "closo ‐[3‐(η^6‐p‐Cymene)‐1‐[(7‐chloroquinolin‐4‐yl)oxy]butyl acetate)‐3,1,2‐RuC2B9H10] [Compound 5]", "values": [{"measurement": "second tautomer present in DMSO‐d6", "setting": "25 °C, 1H NMR", "result": "ca. 5%"}, {"measurement": "stability in water‐containing DMSO‐d6 solution", "setting": "in air, 1H and 11B{1H} NMR, over one month", "result": "no changes in the ^11B{^1H} NMR spectrum; also recorded: sufficient chemical stability"}]}]}
